The source of these data is publication PMC9585939, “Unveiling a family of spiro-β-lactams with anti-HIV and antiplasmodial activity via phosphine-catalyzed [3+2] annulation of 6-alkylidene-penicillanates and allenoates” (Frontiers in Chemistry, 2022).

The subject of one series is HIV-1 SG3.1. The conditions noted are these: CC50 in TZM-bl cells. The source says: (§1) The HIV-1 SG3.1 is a reference subtype B strain that uses the CXCR4 coreceptor. It was obtained by transfection of HEK293T cells with pSG3.1 plasmid using jetPRIME transfection reagent (Polyplus-transfection SA, Illkirch, France), according to the instructions of the manufacturer.
(§2) Briefly, TZM-bl cells were infected with 200 TCID50 of HIV-1 or HIV-2 in the presence of serial-fold dilutions of the compounds in the growth medium, supplemented with diethylaminoethyl-dextran (DEAE-dextran). After 48 h of infection, luciferase expression was quantified with Pierce Firefly Luc One-Step Glow Assay Kit (ThermoFisher Scientific, Rockford, United States), according to the instructions of the manufacturer. For each compound dilution, the assay was set up in triplicate wells. Virus controls, cell controls, and inhibitors controls (drugs with a known action against each virus) were employed.

For another series, the system named is HIV-2 03PTHCC19. Particulars: CC50 in TZM-bl cells.
Text: as §1, §2

In the case of `COc1ccc(COC(=O)C2=CCC3(C(=O)N4C(C(=O)OC(c5ccccc5)c5ccccc5)C(C)(C)SC43)C2C(=O)c2ccccc2)cc1` (stereo not shown) [Compound 9i, (1’R,2’R)-Benzhydryl spiro[(2-benzoyl-3-(4-methoxybenzyloxycarbonyl)cyclopent-3-ene)-1’,6-penicillanate]], the “Therapeutic index (CC50/IC50)” value in the series with HIV-1 SG3.1 was found to be 2385.33; with HIV-2 03PTHCC19 it was 322.34.

For `CC1(C)SC2N(C(=O)C23CC=C(C(=O)OCC=Cc2ccccc2)C3C(=O)c2ccccc2)C1C(=O)OC(c1ccccc1)c1ccccc1` (stereo not shown) [Compound 9n, (1’R,2’R)-Benzhydryl spiro[(2-benzoyl-3-cinnamyloxycarbonylcyclopent-3-ene)-1’,6-penicillanate]], the “Therapeutic index (CC50/IC50)” value in the series with HIV-1 SG3.1 amounted to 3664.12; in the series with HIV-2 03PTHCC19 it was 3893.13.

In the case of `CC1(C)SC2N(C(=O)C23CC=C(C(=O)OCc2ccccc2)C3C(=O)c2ccc(F)cc2)C1C(=O)OC(c1ccccc1)c1ccccc1` (stereo not drawn) [Compound 12a, (1′R,2′R)-benzhydryl spiro[(2-(4-fluorobenzoyl)-3-benzyloxycarbonylcyclopent-3-ene)-1′,6-penicillanate]], the results for the “Therapeutic index (CC50/IC50)” value in the series with HIV-1 SG3.1 and in the series on HIV-2 03PTHCC19 were 3060.00 and 5285.45, respectively.

For `CC1(C)SC2N(C(=O)C23CC=C(C(=O)OCc2ccccc2)C3C(=O)c2ccc(Br)cc2)C1C(=O)OC(c1ccccc1)c1ccccc1` (stereo not shown) [Compound 12c, (1’R,2’R)-Benzhydryl spiro[(2-(4-bromobenzoyl)-3-benzyloxycarbonylcyclopent-3-ene)-1’,6-penicillanate]], the “Therapeutic index (CC50/IC50)” value came out at 1100.40 in the series with HIV-1 SG3.1 and 591.61 with HIV-2 03PTHCC19.

In the case of `COc1ccc(COC(=O)C2=CCC3(C(=O)N4C(C(=O)OC(c5ccccc5)c5ccccc5)C(C)(C)SC43)C2C(=O)c2ccc(F)cc2)cc1` (stereo not drawn) [Compound 14a, (1′R,2′R)-benzhydryl spiro[(2-(4-fluorobenzoyl)-3-(4-methoxybenzyloxycarbonyl)cyclopent-3-ene)-1′,6-penicillanate]], the entries for the “Therapeutic index (CC50/IC50)” value in the series with HIV-1 SG3.1 and in the series on HIV-2 03PTHCC19 were 6255.00 and 5773.85, respectively.

Turning to `CC1(C)SC2N(C(=O)C23CC=C(C(=O)OCC=Cc2ccccc2)C3C(=O)c2ccc(F)cc2)C1C(=O)OC(c1ccccc1)c1ccccc1` (stereo not shown) [Compound 14c, (1’R,2’R)-Benzhydryl spiro[(2-(4-fluorobenzoyl)-3-cinnamyloxycarbonylcyclopent-3-ene)-1’,6-penicillanate]], the “Therapeutic index (CC50/IC50)” value in the series with HIV-1 SG3.1 came to 5174.00; in the series on HIV-2 03PTHCC19, 1990.00.

With `COc1ccc(COC(=O)C2=CCC3(C(=O)N4C(C(=O)OC(c5ccccc5)c5ccccc5)C(C)(C)SC43)C2C(=O)c2ccc(Cl)cc2)cc1` (stereo not shown) [Compound 14d, (1’R,2’R)-Benzhydryl spiro[(2-(4-chlorobenzoyl)-3-(4-methoxybenzyloxycarbonyl)cyclopent-3-ene)-1’,6-penicillanate]], the “Therapeutic index (CC50/IC50)” value amounted to 8906.67 in the series with HIV-1 SG3.1 and 2055.38 in the series with HIV-2 03PTHCC19.

As for `COc1ccc(COC(=O)C2=CCC3(C(=O)N4C(C(=O)OC(c5ccccc5)c5ccccc5)C(C)(C)SC43)C2C(=O)c2ccc(Br)cc2)cc1` (stereo not shown) [Compound 14g, (1’R,2’R)-Benzhydryl spiro[(2-(4-bromobenzoyl)-3-(4-methoxybenzyloxycarbonyl)cyclopent-3-ene)-1’,6-penicillanate]], the “Therapeutic index (CC50/IC50)” value is reported as 3353.33 with HIV-1 SG3.1 and 1156.32 with HIV-2 03PTHCC19.
